# Laboratory results reported in patent publication US4560662A, “Streptomyces antibioticus ATCC 31771 and process for obtaining same” (priority 1981, dated 1985).
# Where two headings read alike, the source gives them in different places.
# Format: physicochemical
# Conditions: 25° C.
# Experimental: Stability in acidic environment at 25° C. of the novel
# antibiotics in comparison with erythromycin A
# t 1/2 represents the half life time of the antibiotics as determined by
# high pressure liquid phase chromatography (HPLC).
substance,measurement,setting,value
"3-O-oleandrosyl-5-O-desosaminyl-(8S)-8,19-epoxyerythronolide B [P 15153]",t 1/2,pH 3.0,> 100 h
same,t 1/2,pH 4.0,> 100 h
